A word on the stoichiometry N: it is the number of molecules, sites or subunits per partner or assembly.

These results are taken from PMC6447637.

Assay [1] concerns the target NaV1.4 CTerm Long (residues 1599-1764) (H. sapiens) (UniProt P35499). In words: ITC; CaM species in the syringe, NaV CTerm in the cell; Ca2+-free: 20 mM MOPS, 150 mM NaCl, 1 mM MgCl2, 50 µM EGTA; VP-ITC; fitted to a single binding site per monomer, error of the fit; one replicate.
Assay [2] has the same target. In words: ITC; CaM species in the syringe, NaV CTerm in the cell; Ca2+-saturating: 20 mM MOPS, 150 mM NaCl, 1 mM MgCl2, 50 µM EGTA with 1 mM CaCl2; VP-ITC; fitted to a single binding site per monomer, error of the fit; one replicate.

Turning to “CaM12 (D20A, D56A; N lobe Ca2+ binding disabled) (from UniProt P0DP30 1-149) (natural protein)”, the stoichiometry N in assay [1] amounted to 0.993 Sites; in assay [2] it was 1.01 Sites.
In the case of “calmodulin (full-length mammalian, CALM2) (from UniProt P0DP30 1-149) (natural protein)”, the results for the stoichiometry N in assay [1] and in assay [2] were 0.971 Sites and 1.01 Sites, respectively.
For “CaM34 (D93A, D129A; C lobe Ca2+ binding disabled) (from UniProt P0DP30 1-149) (natural protein)”, in that order: 1 Sites and 0.996 Sites.
